According to patent publication US20230145835A1, “Modulators of Alpha-4-beta-7 Integrin and MAdCAM” (48HD Biopharma Inc., priority 2021, published 2023):

Molecular target: T1, rh-integrin α4β7/LPAM-1 (Homo sapiens, UniProt P13612+P26010)
T1 sequence (P13612 34-977 limits assumed): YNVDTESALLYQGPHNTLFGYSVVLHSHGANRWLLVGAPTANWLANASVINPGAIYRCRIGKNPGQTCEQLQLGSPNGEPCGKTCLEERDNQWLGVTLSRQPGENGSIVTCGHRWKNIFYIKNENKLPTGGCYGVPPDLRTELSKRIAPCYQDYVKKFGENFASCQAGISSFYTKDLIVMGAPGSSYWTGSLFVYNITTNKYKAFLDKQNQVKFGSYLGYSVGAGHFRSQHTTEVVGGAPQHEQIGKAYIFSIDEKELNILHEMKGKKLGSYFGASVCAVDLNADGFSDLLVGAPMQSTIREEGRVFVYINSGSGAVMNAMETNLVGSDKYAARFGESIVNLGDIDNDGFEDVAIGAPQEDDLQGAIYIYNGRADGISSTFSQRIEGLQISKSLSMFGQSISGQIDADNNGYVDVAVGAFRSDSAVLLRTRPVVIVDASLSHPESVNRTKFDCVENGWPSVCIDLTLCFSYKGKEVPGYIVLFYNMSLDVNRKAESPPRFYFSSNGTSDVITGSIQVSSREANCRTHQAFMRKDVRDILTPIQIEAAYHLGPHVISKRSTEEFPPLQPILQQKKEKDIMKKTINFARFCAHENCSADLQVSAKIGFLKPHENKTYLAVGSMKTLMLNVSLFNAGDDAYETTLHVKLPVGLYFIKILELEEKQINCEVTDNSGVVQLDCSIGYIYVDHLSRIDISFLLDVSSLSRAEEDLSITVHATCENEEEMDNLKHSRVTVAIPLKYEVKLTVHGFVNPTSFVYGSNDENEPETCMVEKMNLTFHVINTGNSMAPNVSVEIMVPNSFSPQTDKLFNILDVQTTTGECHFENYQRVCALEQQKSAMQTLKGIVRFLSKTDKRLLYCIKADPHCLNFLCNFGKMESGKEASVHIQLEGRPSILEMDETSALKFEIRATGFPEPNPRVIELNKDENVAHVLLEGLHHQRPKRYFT
T1 sequence (P26010 20-723 limits assumed): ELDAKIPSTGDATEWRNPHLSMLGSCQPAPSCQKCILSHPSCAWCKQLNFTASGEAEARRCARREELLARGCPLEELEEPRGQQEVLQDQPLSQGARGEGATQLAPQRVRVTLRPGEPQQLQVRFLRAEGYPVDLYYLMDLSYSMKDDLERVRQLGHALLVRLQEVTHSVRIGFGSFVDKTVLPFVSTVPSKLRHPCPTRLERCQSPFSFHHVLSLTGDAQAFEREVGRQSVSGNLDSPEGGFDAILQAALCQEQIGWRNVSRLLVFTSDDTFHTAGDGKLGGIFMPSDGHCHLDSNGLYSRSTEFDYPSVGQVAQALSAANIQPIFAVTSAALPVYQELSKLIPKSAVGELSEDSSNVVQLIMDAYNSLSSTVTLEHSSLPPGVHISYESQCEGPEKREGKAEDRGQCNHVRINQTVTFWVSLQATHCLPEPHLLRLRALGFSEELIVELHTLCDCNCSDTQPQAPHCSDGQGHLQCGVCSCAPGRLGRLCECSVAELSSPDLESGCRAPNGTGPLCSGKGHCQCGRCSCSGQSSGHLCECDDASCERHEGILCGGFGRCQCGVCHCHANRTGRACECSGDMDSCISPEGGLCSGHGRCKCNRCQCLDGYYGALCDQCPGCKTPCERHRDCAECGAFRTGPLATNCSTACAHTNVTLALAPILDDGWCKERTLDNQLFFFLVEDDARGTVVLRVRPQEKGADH
Assay: α4β7-MadCAM Competition ELISA (Example 4)
Assay type: binding
Settings: 4 μg/mL α4β7 coated, MAdCAM and peptide mixture, 28° C.
Procedure: After washing with wash buffer, 200 μL assay buffer was added to each well and incubated for one hour at 28° C. After another wash with wash buffer, 100 μL of a MAdCAM and peptide mixture in assay buffer was added to each well and incubated for one hour at 28° C., followed by washing with wash buffer.

CC(C)C[C@@H]1NC(=O)[C@@H]2CCCN2C(=O)[C@@H]2CSCc3cc(cc(c3)OCCCCCCO/N=C/C(=O)N[C@@H](CCCCN)C(=O)N2)CSC[C@@H](C(N)=O)NC(=O)[C@H](C)NC(=O)[C@@H]2CCCN2C(=O)[C@H](C(C)C)NC(=O)[C@H](CC(=O)O)NC1=O [SEQ ID NO: 59]
IC50: 1.92 µM
